Data as given in the NIST ThermoML archive (doi:10.1016/j.fluid.2013.11.031).

Assay: xn = mol fraction of the nth substance listed
Conditions: Liquid, Vibrating tube method

CCCCOCCCC [dibutyl ether] + CC(C)O
mass density [kg/m3]
Conditions | x1 = 0.1499 | x1 = 0.3251 | x1 = 0.508 | x1 = 0.675 | x1 = 0.8477
293.15 K, 100 kPa | 780 | 775.7 | 772.8 | 770.6 | 769
293.15 K, 10000 kPa | 788.3 | 784.1 | 781.2 | 778.9 | 777.3
293.15 K, 20000 kPa | 795.9 | 791.7 | 788.8 | 786.5 | 784.9
293.15 K, 30000 kPa | 802.7 | 798.5 | 795.7 | 793.4 | 791.8
293.15 K, 40000 kPa | 809 | 804.8 | 802.1 | 799.9 | 798.3
293.15 K, 50000 kPa | 814.9 | 810.7 | 808.1 | 805.8 | 804.2
293.15 K, 60000 kPa | 820.4 | 816.3 | 813.6 | 811.4 | 809.7
293.15 K, 70000 kPa | 825.7 | 821.6 | 818.9 | 816.7 | 815.1
293.15 K, 80000 kPa | 830.7 | 826.6 | 824 | 821.8 | 820.1
293.15 K, 90000 kPa | 835.4 | 831.3 | 828.7 | 826.5 | 824.8
293.15 K, 100000 kPa | 840.2 | 836.1 | 833.5 | 831.3 | 829.7
293.15 K, 110000 kPa | 844.3 | 840.3 | 837.7 | 835.5 | 833.9
293.15 K, 120000 kPa | 848.5 | 844.5 | 841.9 | 839.7 | 838.1
293.15 K, 130000 kPa | 852.5 | 848.5 | 845.9 | 843.7 | 842.1
293.15 K, 140000 kPa | 856.4 | 852.4 | 849.9 | 847.6 | 846.1
313.15 K, 100 kPa | 762.2 | 757.8 | 754.8 | 752.7 | 751.4
313.15 K, 10000 kPa | 771.5 | 767.1 | 764.1 | 762 | 760.6
313.15 K, 20000 kPa | 779.8 | 775.6 | 772.6 | 770.4 | 769
313.15 K, 30000 kPa | 787.5 | 783.3 | 780.4 | 778.2 | 776.8
313.15 K, 40000 kPa | 794.4 | 790.3 | 787.3 | 785.2 | 783.8
313.15 K, 50000 kPa | 800.9 | 796.8 | 794 | 791.8 | 790.4
313.15 K, 60000 kPa | 806.9 | 802.9 | 800.1 | 797.9 | 796.5
313.15 K, 70000 kPa | 812.7 | 808.8 | 805.9 | 803.8 | 802.4
313.15 K, 80000 kPa | 818 | 814.1 | 811.3 | 809.1 | 807.7
313.15 K, 90000 kPa | 823.1 | 819.3 | 816.5 | 814.3 | 812.9
313.15 K, 100000 kPa | 827.8 | 824 | 821.2 | 819 | 817.6
313.15 K, 110000 kPa | 832.5 | 828.7 | 825.9 | 823.8 | 822.3
313.15 K, 120000 kPa | 837 | 833.2 | 830.4 | 828.3 | 826.9
313.15 K, 130000 kPa | 841.2 | 837.4 | 834.7 | 832.5 | 831.1
313.15 K, 140000 kPa | 845.4 | 841.6 | 838.9 | 836.7 | 835.3
